Laboratory results published in PubChem BioAssay AID2023 (NMMLSC, 2009).
This is a selection; strong and weak results do not stand in their true shares. The source made the active and inactive calls.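 How the source made its calls: active means GFP response vs DMSO above a set limit, about the screen mean plus 3 SD (cut at about 150% in these data); inconclusive means under 70 cell events counted for the yeast strain; inactive means the rest.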

Test: modulators of LAP4-GFP expression in yeast, primary screen, S. cerevisiae, multiplex flow cytometry, MLPCN library (AID 2023)
Conditions: 3 h, at 10 µM, stronger effect = higher value, median GFP as percent of DMSO wells

SMILES	GFP response vs DMSO
CCCN1CCC(Nc2cc(OC)cc(OC)c2)CC1	inactive: 97.5%
c1ccc(CN2CCC(Nc3ccccc3)CC2)cc1	inactive: 98.7%
CN(C)C1(CNC(=O)c2cccc(C#N)c2)CCCCC1	inactive: 103%
CC(C)(C)OC(=O)N1CCC(N(C(=O)c2ccccc2)c2ccc(Cl)cc2)CC1	inactive: 92.6%
N#Cc1ccc(C(=O)NCC2(N3CCCCC3)CCCCC2)cc1	inactive: 97.6%
CCc1cc(C(=O)NCC2(N3CCCCC3)CCCCC2)sc1C	inactive: 96.2%
O=C(OC1CN2CCC1CC2)C1c2ccccc2C=Cc2ccccc21 (stereo unspecified)	inactive: 97.2%
N/C(=N\O)c1c(N)no[n+]1[O-]	inactive: 101%
CCOC(=O)N1CCC(Nc2ccc(C)cc2)CC1	inactive: 90.2%
COc1ccc(C(=O)NCC2(N3CCOCC3)CCCCC2)cc1OC	inactive: 93.8%
O=C(NCC1(N2CCOCC2)CCCCC1)c1cc(Br)ccc1Cl	inactive: 94%
COc1cc(C(=O)NCC2(N3CCOCC3)CCCCC2)cc(OC)c1C	inactive: 97.1%
CCCOc1ccc(C)cc1CN(CCCl)CCCl	inactive: 104%
CN1CCC(Nc2ccc(Cl)cc2)CC1	inactive: 94.4%
CCC(CO)(C(=O)OC1CN2CCC1CC2)c1ccccc1 (stereo unspecified)	inactive: 95.1%
COc1cccc(C(=O)N(c2cc(C)cc(C)c2)C2CCN(C(=O)OC(C)(C)C)CC2)c1	inactive: 103%
COc1cc(OC)cc(C(=O)NCC2(N3CCOCC3)CCCCC2)c1	inactive: 101%
CCCOc1ccc(C(=O)NCC2(N(C)C)CCCCC2)cc1	inactive: 94.2%
O=C(O)C1(Nc2ccccc2)CCN(Cc2ccccc2)CC1	inactive: 94.5%
CC(C)(C)OC(=O)N1CCC(Nc2ccccc2)CC1	inactive: 105%
CN1CCC(Nc2ccc(F)c(Cl)c2)CC1	inactive: 102%
CCOc1ncccc1C(=O)NCC1(N2CCOCC2)CCCCC1	inactive: 103%

SMILES	GFP response vs DMSO
CN(C)c1ccc(C(=O)NCC2(N3CCCCC3)CCCCC2)cc1	inactive: 97.8%
O=C(NCC1(N2CCCCC2)CCCCC1)c1ccco1	inactive: 103%
CCN1CCC(Nc2cccc(F)c2)CC1	inactive: 94.7%
Fc1ccccc1NC1CCN(Cc2ccccc2)CC1	inactive: 103%
Cc1ccc(C(=O)NCC2(N3CCCCC3)CCCCC2)o1	inactive: 98.7%
COc1cc(OC)cc(C(=O)NCC2(N3CCCCC3)CCCCC2)c1	inactive: 88.8%
Cc1ccc(OCC(C)C)c(CN(CCCl)CCCl)c1	inactive: 123%
CCOC(=O)N1CCC(Nc2cccc(C)c2)CC1	inactive: 99.7%
COc1cc(C(=O)NCC2(N(C)C)CCCCC2)ccc1OC(F)F	inactive: 90.9%
CCOC(=O)N1CCC(Nc2ccc(F)cc2)CC1	inactive: 99.6%
COc1ccc(NC2CCN(CCc3ccccc3)CC2)c(OC)c1	inactive: 106%
O=C(NCC1(N2CCCCC2)CCCCC1)c1ccc(F)cc1	inactive: 92.7%
CCOc1ccc(C)cc1CN(CCCl)CCCl	inactive: 94.5%
CCOC(=O)N1CCC(Nc2ccc(OC)cc2)CC1	inactive: 92.9%
COc1ccc(Cl)cc1C(=O)NCC1(N2CCOCC2)CCCCC1	inactive: 105%
N#CC1(Nc2ccccc2)CCN(Cc2ccccc2)CC1	inactive: 113%
O=C(NCC1(N2CCCCC2)CCCCC1)c1ccc(Cl)s1	inactive: 101%
O=C(OC1CN2CCC1CC2)C1c2ccccc2Oc2ccccc21 (stereo unspecified)	inactive: 104%
O=C(NCC1(N2CCOCC2)CCCCC1)c1cc2ccccc2o1	inactive: 92%
Cc1cc(C)cc(N(C(=O)c2ccccc2)C2CCN(C(=O)OC(C)(C)C)CC2)c1	inactive: 83.4%
O=C(NCC1(N2CCCCC2)CCCCC1)c1ccc(Cl)nc1	inactive: 89.6%
CSc1ccccc1C(=O)NCC1(N2CCCCC2)CCCCC1	inactive: 91.7%

SMILES	GFP response vs DMSO
O=C(NCC1(N2CCCCC2)CCCCC1)c1cccs1	inactive: 99.6%
O=C(NCC1(N2CCCCC2)CCCCC1)c1ccc(=O)[nH]c1	inactive: 105%
CC(C)(C)OC(=O)N1CCC(N(C(=O)c2ccccc2)c2ccc(F)cc2)CC1	inactive: 95.8%
COc1ccc(C(=O)NCC2(N3CCCCC3)CCCCC2)c(OC)c1OC	inactive: 90.7%
COc1ccc(C(=O)NCC2(N3CCCCC3)CCCCC2)cc1	inactive: 97.8%
CCCOc1ccc(C(=O)NCC2(N(C)C)CCCCC2)cc1OC	inactive: 75.5%
CN1CCC(Nc2cccc(F)c2)CC1	inactive: 114%
O=C(NCC1(N2CCCCC2)CCCCC1)c1cncc(Br)c1	inactive: 102%
O=C(NCC1(N2CCOCC2)CCCCC1)c1cc(F)c(F)cc1Cl	inactive: 102%
COc1cc(OC)c(C(=O)NCC2(N(C)C)CCCCC2)cc1OC	inactive: 91.9%
CN(C)c1cccc(C(=O)NCC2(N3CCCCC3)CCCCC2)c1	inactive: 98.3%
COc1ccc(CN(CCCl)CCCl)cc1Cl	inactive: 100%
CC(C)c1ccc(NC2CCN(C(=O)OC(C)(C)C)CC2)cc1	inactive: 98.4%
COc1ccc(NC2CCN(C(=O)OC(C)(C)C)CC2)cc1	inactive: 102%
CN1CCN(CCOC(=O)C(O)(c2ccccc2)c2ccccc2)CC1	inactive: 85.6%
O=C(NCC1(N2CCOCC2)CCCCC1)c1cc(=O)[nH]c2ccccc12	inactive: 95.2%
COc1cc(C(=O)NCC2(N3CCCCC3)CCCCC2)ccc1OC(F)F	inactive: 115%
O=C(NCC1(N2CCCCC2)CCCCC1)c1cccc(C(F)(F)F)c1	inactive: 98.7%
O=C(NCC1(N2CCCCC2)CCCCC1)c1cccc([N+](=O)[O-])c1	inactive: 102%
N#CC1(Nc2ccccc2)CCN(CCc2ccccc2)CC1	inactive: 104%
CCN1CCC(Nc2ccc(Cl)cc2)CC1	inactive: 97.5%
O=C(NCC1(N2CCCCC2)CCCCC1)c1ccc(OC(F)F)cc1	inactive: 95.2%
